According to ChEMBL document CHEMBL1135604, “Geometry-affinity relationships of the selective serotonin receptor ligand 9-(aminomethyl)-9,10-dihydroanthracene” (J Med Chem, 2002):

Target: 5-hydroxytryptamine receptor 2A (Rattus norvegicus) (UniProt P14842)
Assay: Binding affinity was performed using [3H]ketanserin as the radioligand and stably transfected NIH3T3 cells expressing the 5-hydroxytryptamine 2A receptor (GF-62 cells).

Ki [µM]	Compound
4.49	NCC1c2ccccc2-c2ccccc21
4.13	NCC1c2ccccc2C=Cc2ccccc21
